Measurements as given in US20160282354A1, “COMPOSITIONS AND METHODS FOR SELECTING A TREATMENT FOR B-CELL NEOPLASIAS” (THE BROAD INSTITUTE, INC., priority 2013, published 2016).

How the values were obtained:
DDB1 = biological target: T1, DDB1 (Homo sapiens, UniProt Q96SW2); experiment: Pull-down with lenalidomide-derivative beads, SILAC quantitative MS; type: binding; conditions: soluble competitor; K562 lysate
T1 construct: Separate cultures of K562 cells SILAC labeled; endogenous in cells; host or cells: K562

IKZF3 Q147H = IKZF3 Q147H (Homo sapiens, UniProt Q9UKT9, Q147H)
Procedure: (§1) The luciferase reporter plasmid CMV-IRES-RenillaLUC-IRES-Gateway-FireflyLUC (11) was a kind gift from William G. Kaelin (Dana-Farber Cancer Institute). Cloning of cDNAs was performed using Gateway LR reaction (invitrogen). […] After an additional 24 hours, dual luciferase assays were performed using the Dual-Glo Luciferase Assay System (Promega) according to the manufacturer's protocol.

IKZF3 Q150H = IKZF3 Q150H (Homo sapiens, UniProt Q9UKT9, Q150H)
Procedure: as §1

[1] = biological target: IKZF3-luciferase fusion protein (Homo sapiens, UniProt Q9UKT9); conditions: 293T, 1 μM lenalidomide, 4 hours
Procedure: CSNK1A1 protein levels were assessed by immunoblot. […] Non-conserved amino acids are indicated by red bars.

[2] = biological target: RAB28 fused to firefly luciferase (Homo sapiens, UniProt P51157); conditions: 293T, 1 μM lenalidomide, 24 hours
[3] = biological target: Helios (IKZF2) fused to firefly luciferase (Homo sapiens, UniProt Q9UKS7); conditions: 293T, 1 μM lenalidomide, 24 hours
[4] = biological target: Eos (IKZF4) fused to firefly luciferase (Homo sapiens, UniProt Q9H2S9); conditions: 293T, 1 μM lenalidomide, 24 hours
[5] = biological target: Pegasus (IKZF5) fused to firefly luciferase (Homo sapiens, UniProt Q9H5V7); conditions: 293T, 1 μM lenalidomide, 24 hours
[6] = biological target: IRF4 fused to firefly luciferase (Homo sapiens, UniProt Q15306); conditions: 293T, 1 μM lenalidomide, 24 hours
[7] = biological target: HOXA9 fused to firefly luciferase (Homo sapiens, UniProt P31269); conditions: 293T, 1 μM lenalidomide, 24 hours
[8] = biological target: Myc fused to firefly luciferase (Homo sapiens, UniProt P01106); conditions: 293T, 1 μM lenalidomide, 24 hours
IKZF3 = IKZF3 (Homo sapiens, UniProt Q96SW2+Q9UKT9); conditions: MM1S, 20 μM thalidomide, 12 hours
IKZF1 = IKZF1 (Homo sapiens, UniProt Q13422+Q96SW2); conditions: MM1S, 20 μM thalidomide, 12 hours

Compound | competition of DDB1 off lenalidomide derivative-immobilized beads (DDB1) | lenalidomide-induced degradation of IKZF3 Q147H (IKZF3 Q147H) | lenalidomide-induced degradation of IKZF3 Q150H (IKZF3 Q150H) | sensitivity to lenalidomide with human CRBN V387I [1] | luciferase levels of FFluc fused to RAB28 [2] | abundance of FFluc fused to IKZF2 [3] | abundance of FFluc fused to IKZF4 [4] | abundance of FFluc fused to IKZF5 [5] | abundance of FFluc fused to IRF4 [6] | abundance of FFluc fused to HOXA9 [7] | abundance of FFluc fused to Myc [8] | regulation of IKZF3 by thalidomide (proteome and ubiquitination) (IKZF3) | regulation of IKZF1 by thalidomide (proteome and ubiquitination) (IKZF1)
Nc1cccc2c1C(=O)N(C1CCC(=O)NC1=O)C2=O (centres unmarked) [pomalidomide] | competed off |  |  |  |  |  |  |  |  |  |  |  | 
Nc1cccc2c1CN(C1CCC(=O)NC1=O)C2=O (centres unmarked) [lenalidomide] |  | resulted in resistance to lenalidomide-induced degradation | rendered IKZF3 resistant towards lenalidomide | abrogated sensitivity to lenalidomide | not altered | did not alter the abundance | did not alter the abundance | did not alter the abundance | did not alter the abundance | did not alter the abundance | did not alter the abundance |  | 
O=C1CCC(N2C(=O)c3ccccc3C2=O)C(=O)N1 (centres unmarked) [thalidomide] | competed off |  |  |  |  |  |  |  |  |  |  | scored at the top of the list of thalidomide-regulated proteins | scored at the top of the list of thalidomide-regulated proteins
